Article PMC6812009, “Covalent Aurora A regulation by the metabolic integrator coenzyme A” (Redox Biology, 2019)

Tested on: FLAG-tagged Aurora A in HEK293/Pank1β cells
Assay: Aurora A Thr 288 phosphorylation and dimerization in cells treated with oxidising agents (immunoblot)
Format: cell-based, human
Details: 30 min treatment, samples separated in the presence of DTT

Compound: O=[As]c1ccccc1 (stereo not shown)
- Aurora A phosphorylation at Thr 288 in cells: promoted an increase
